Source: patent US10633351B2, “Halogenated compound and axially chiral isomer thereof” (MEDSHINE DISCOVERY INC., priority 2016, dated 2020)

The chains behind the UniProt entries cited, without tags or fusion partners. Where a name states a change or a piece, a line headed by the entry shows the natural chain unless it says otherwise.
UniProt Q96S37: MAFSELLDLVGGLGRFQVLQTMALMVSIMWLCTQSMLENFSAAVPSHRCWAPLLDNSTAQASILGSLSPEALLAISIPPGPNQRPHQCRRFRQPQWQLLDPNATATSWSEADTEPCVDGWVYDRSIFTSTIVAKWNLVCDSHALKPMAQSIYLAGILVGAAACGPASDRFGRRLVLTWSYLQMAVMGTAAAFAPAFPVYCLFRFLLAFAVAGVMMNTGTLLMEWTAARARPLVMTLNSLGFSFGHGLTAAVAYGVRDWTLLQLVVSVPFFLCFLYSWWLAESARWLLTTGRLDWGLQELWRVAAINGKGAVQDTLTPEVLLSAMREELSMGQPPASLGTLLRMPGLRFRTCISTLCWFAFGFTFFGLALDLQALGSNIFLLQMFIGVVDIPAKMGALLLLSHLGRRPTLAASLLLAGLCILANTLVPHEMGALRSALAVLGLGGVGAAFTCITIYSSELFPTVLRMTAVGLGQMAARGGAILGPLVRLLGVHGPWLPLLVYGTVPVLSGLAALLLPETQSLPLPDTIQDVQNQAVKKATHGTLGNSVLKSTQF

Target: T1, URAT-1 (Homo sapiens, UniProt Q96S37)
T1 construct: expressed in transfected cells; host or cells: MDCK
Experiment: Inhibition of 14C-labelled uric acid transport in MDCK cell line stably transfected with the URAT-1 gene
Type: cell-based
Conditions: MDCK cells stably transfected with URAT-1, 14C uric acid 50 uM; read-out: IC50 against URAT-1
Text: Based on the study of the Lesinurad metabolic pathway and its clinical toxic side effects, a series of compounds containing a naphthalene ring substituent (formula I) were designed and synthesized in the present invention, in which two representative compounds (formulas II and V) were successfully separated to give the rotational isomers (formula III and formula IV, formula VI and formula VII). The inventors examined the ability of these compounds to inhibit the transport of labeled uric acid by MDCK cell lines stably transfected with the human URAT1 gene.
Determination of the IC50 value of the inhibitory activity of the compound against uric acid reabsorption by the MDCK cell line stably transfected with the URAT-1 (uric acid transporter) gene.
URAT-1 (MDCK) cell line: the MDCK cell line stably transfected with the URAT-1 gene
Cell culture medium: MEM culture medium added 10% fetal bovine serum (FBS), 1% sodium pyruvate and 250 ug/ml G418. […]
^14C-labelled uric acid was diluted and added into plate, and the final concentration was 50 uM. […] The signal was read by liquid scintillation counter Tri-Carb.
URAT-1 inhibition by the treatment of the compounds was analyzed by calculating the percentage of inhibition according to luminescent data. […]

IC50: 24 µM
Compound: O=C(O)CSc1nnc(Br)n1-c1ccc(C2CC2)c2ccccc12 (racemic) [(±)-Lesinurad, Lesinurad, reference compound]
